This passage reports EC50 results from patent US10919859B2, “Benzylaminopyridylcyclopropanecarboxylic acids, pharmaceutical compositions and uses thereof” (Boehringer Ingelheim International GmbH, priority 2017, dated 2021).

Amino acid sequences for entries named in this document (tags omitted).
UniProt O14842, whole entry: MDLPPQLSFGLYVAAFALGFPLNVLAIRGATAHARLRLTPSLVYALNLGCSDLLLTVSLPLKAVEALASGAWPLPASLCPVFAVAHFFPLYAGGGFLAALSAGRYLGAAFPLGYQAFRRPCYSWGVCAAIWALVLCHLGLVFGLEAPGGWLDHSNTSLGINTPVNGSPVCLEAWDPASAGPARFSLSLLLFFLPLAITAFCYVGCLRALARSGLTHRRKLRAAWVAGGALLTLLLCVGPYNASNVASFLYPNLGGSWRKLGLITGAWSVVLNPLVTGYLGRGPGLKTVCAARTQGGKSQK

For the experiment, the target named is human GPR40 receptor (Homo sapiens (Human), UniProt O14842). Briefly: IP1 accumulation measurements using the IPOne assay system. Particulars: 1321N1 cells stably expressing human GPR40, 1 h at 37° C. The method, then:
IP1 accumulation measurements using the IPOne assay system—1321N1 cells stably expressing human GPR40 receptor (Euroscreen, Belgium) are seeded 24 h before the assay in white 384-well plates in culture medium containing 10% FCS, 1% Na-Pyruvate and 400 μg/mL G418. IP1 is assayed according to the manufacturer's description (Cisbio Bioassays, France). In brief, the assay is started by substitution of the culture medium by stimulation buffer (Hepes 10 mM, CaCl2 1 mM, MgCl2 0.5 mM, KCl 4.2 mM, NaCl 146 mM, glucose 5.5 mM and LiCl 50 mM, pH 7.4). Cells are stimulated for 1 h at 37° C., 5% CO2 by addition of the compounds that are diluted in stimulation buffer containing LiCl. Assays are stopped by adding HTRF-conjugates (IP1-d2 and Anti-IP1 cryptate Tb) and lysis buffer, provided by the manufacturer. After an incubation time of 1 h at room temperature plates are measured using an EnVision™, Perkin Elmer. The obtained fluorescence ratios at 665/615 […] are then used to calculate the pEC50 values using Assay Explorer 3.3 Software (Accelrys, Inc.) by interpolation using an IP1 reference curve and subsequent sigmoidal curve fitting allowing for a variable hill slope.

Compound `Cc1nc(-c2ccc(-c3ccc(F)c(CNc4ccc([C@@H]5C[C@H]5C(=O)O)nc4)c3)cc2)cs1` registered an EC50 of 219 nM.
